IC50 data for one compound are collected here from patent US8748461B2, “Metalloenzyme inhibitor compounds” (Viamet Pharmaceuticals, Inc., priority 2011, dated 2014).

Protein sequences, listed by entry. Tags and fused reporters are not part of them.
UniProt P33261, whole entry: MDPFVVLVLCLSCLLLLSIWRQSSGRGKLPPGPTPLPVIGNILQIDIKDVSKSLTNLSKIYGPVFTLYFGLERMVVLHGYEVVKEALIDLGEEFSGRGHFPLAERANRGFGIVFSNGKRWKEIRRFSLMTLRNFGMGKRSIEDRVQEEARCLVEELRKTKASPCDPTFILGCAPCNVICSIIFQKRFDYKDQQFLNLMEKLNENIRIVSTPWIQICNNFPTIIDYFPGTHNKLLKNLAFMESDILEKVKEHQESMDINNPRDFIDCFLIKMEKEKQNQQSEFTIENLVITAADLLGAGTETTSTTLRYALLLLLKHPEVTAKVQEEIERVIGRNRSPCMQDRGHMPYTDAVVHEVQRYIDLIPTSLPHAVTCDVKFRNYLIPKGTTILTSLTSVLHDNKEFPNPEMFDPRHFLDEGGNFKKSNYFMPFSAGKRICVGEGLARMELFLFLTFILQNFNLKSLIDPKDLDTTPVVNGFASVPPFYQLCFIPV
UniProt P11712, whole entry: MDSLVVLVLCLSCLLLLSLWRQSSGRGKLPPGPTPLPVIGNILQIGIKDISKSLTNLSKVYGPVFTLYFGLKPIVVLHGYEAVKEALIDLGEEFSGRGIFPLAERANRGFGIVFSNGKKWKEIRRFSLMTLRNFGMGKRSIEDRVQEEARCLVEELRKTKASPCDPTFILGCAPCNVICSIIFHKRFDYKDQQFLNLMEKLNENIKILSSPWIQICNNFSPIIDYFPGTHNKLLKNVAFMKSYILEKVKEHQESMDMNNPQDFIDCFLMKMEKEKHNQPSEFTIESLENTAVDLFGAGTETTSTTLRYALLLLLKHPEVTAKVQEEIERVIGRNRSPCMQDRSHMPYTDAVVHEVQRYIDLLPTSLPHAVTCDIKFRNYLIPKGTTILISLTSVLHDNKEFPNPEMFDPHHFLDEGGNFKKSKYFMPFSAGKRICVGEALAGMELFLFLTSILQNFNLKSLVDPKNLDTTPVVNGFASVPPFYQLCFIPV

Broadly, the IC50 is the concentration needed to halve the response being measured.

In assay [1] the target is T1, CYP2C19 (Homo sapiens, UniProt P33261).
T1 construct: from tissue; host or cells: pooled human liver microsomes
Nature of the assay: Inhibition of liver cytochrome P450 enzymes, isozyme 2C19. The class given is in vitro ADME. On the procedure: (§1) B. […] Solutions of each test compound were separately prepared at concentrations of 20000, 6000, 2000, 600, 200, and 60 μM by serial dilution with DMSO:acetonitrile (MeCN) (50:50 v/v). The individual test compound solutions were then diluted 20-fold with DMSO:MeCN:deionized water (5:5:180 v/v/v) to concentrations of 1000, 300, 100, 30, 10, and 3 μM. […] The mixed inhibitor solutions were then diluted 20-fold with DMSO:MeCN:deionized water (5:5:180 v/v/v) to concentrations of 300, 100, 30, 10, 3, 1, 0.3, and 0.1 μM. The percent of organic solvent attributable to the test compound or inhibitor mixture in the final reaction mixture was 2% v/v. Pooled human liver microsome suspension (20 mg/mL) was diluted with phosphate buffer to obtain a 5 mg/mL suspension. A solution of NADPH was prepared in phosphate buffer at a concentration of 5 mM. Separate stock solutions of each substrate were prepared in DMSO:MeCN (50:50 v/v), mixed, and diluted in phosphate buffer to obtain a single solution containing each substrate at five times its experimentally determined Km concentration. […] A portion of the supernatant was analyzed by gradient reverse-phase HPLC with detection by electrospray ionization triple quadrupole mass spectrometry in the positive ion mode. Data was fitted to sigmoid dose-response curves and the inhibitory potency of each test compound was determined as its IC50 value.

The target in assay [2] is T2, CYP2C9 (Homo sapiens, UniProt P11712).
T2 construct: from tissue; host or cells: pooled human liver microsomes
The assay is described as follows: Inhibition of liver cytochrome P450 enzymes, isozyme 2C9. Format: in vitro ADME. As to the method: as §1

For `OC(Cn1cncn1)(Cn1cncn1)c1ccc(F)cc1F` [Fluconazole, reference compound], the IC50 in assay [1] is 8.2 µM; in assay [2] it was 29 µM.
